Results on two compounds are retold here after PubChem BioAssay AID588353 (Johns Hopkins Ion Channel Center, 2011).

Only a part is listed here, and it is no random draw. Calls of active or inactive are those of the source.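 How the source made its calls: active means primary screen active, with duplicate mean exceeding buffer control mean plus 3 SD of buffer wells (cut at about 28% in these data); inactive means the rest.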

The assay addresses Potassium voltage-gated channel subfamily KQT member 1 (Homo sapiens) (UniProt P51787). The assay is described as follows: KCNQ1 potassium channel inhibitors, confirmation, cell-based, Tl flux, duplicate (AID 588353).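 Further: 0% = buffer control ratio and 100% = XE991 inhibitor control ratio.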 Conditions: KCNQ1 cell line, FluxOR thallium flux fluorescence; at 10 µM; stronger effect = higher value. The essentials:
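Material: KCNQ1 CHO cells; also added: Thallium-potassium depolarizing stimulus buffer; timing: dye loading 90 min, compound 20 min, both room temperature; signal: FluxOR thallium flux fluorescence, 10 s baseline plus 110 s; evaluation: percent inhibition relative to buffer and XE991; benchmarks: buffer and XE991; repeats: duplicates, mean used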
For `COc1cc(C(=O)NCC2(N3CCOCC3)CCCCC2)cc(Cl)c1OC(C)C`, the inhibition was active: 78%.

As for `CCC1=CC2Cc3nc4ccc(Cl)cc4c(N)c3C(C1)C2` (configuration not stated), the inhibition is active: 68%.
